Measured values published in PubChem BioAssay AID602252 (Broad Institute, 2012).
Only a part is listed here, and it is no random draw. Some results for these compounds are left out of this collection, so the calls shown say nothing about other tests. The source made the active and inactive calls.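 The calls were made as follows: active = mean inhibition of at least 30% with at least half of replicates also reaching 30%; inconclusive = no clear call, values can overlap the other calls; inactive = the rest.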

Target: Golgi-associated PDZ and coiled-coil motif-containing protein (Homo sapiens) (UniProt Q9HD26)
Assay: untagged CAL PDZ binding inhibitors, primary screen, biochemical, fluorescence polarization, HTS (AID 602252);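 also: 0% = DMSO neutral control and 100% = excess unlabeled competitor peptide PRC23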
Conditions: purified CAL PDZ, TMR-peptide fluorescence polarization, 1 h; at 24.9 µM; stronger effect = higher value

SMILES | inhibition
O=C(NCC1(N2CCCCC2)CCCCC1)c1cc(F)c(F)cc1Cl | inactive: -2.42%
C=CCN1CCN(CCOC(=O)C(O)(c2ccccc2)c2ccccc2)CC1 | inactive: 8.85%
O=C(NCC1(N2CCCCC2)CCCCC1)c1cccc(Br)c1 | inactive: -2.91%
Cc1cc(C(=O)NCC2(N3CCCCC3)CCCCC2)ccc1[N+](=O)[O-] | inactive: -4.69%
CCN1CCCC(OC(=O)C2(O)c3ccccc3C=Cc3ccccc32)C1 (centres undefined) | inactive: -3.54%
COc1ccc(C(=O)NCC2(N(C)C)CCCCC2)cc1 | inactive: 2.13%
CN(C)C1CCCC1OC(=O)C(O)(c1ccccc1)c1ccccc1 (centres undefined) | inactive: -5.53%
CN(C)c1ccc(C(=O)NCC2(N(C)C)CCCCC2)cc1 | inactive: -7.86%
Cc1ccccc1C(=O)NCC1(N2CCCCC2)CCCCC1 | inactive: -2.43%
CC(C)N1C(=O)CC2(CCN(CCOC(=O)C(O)(c3ccccc3)c3ccccc3)CC2)C1=O | inactive: 0.732%
COc1cc(SC)ccc1C(=O)NCC1(N(C)C)CCCCC1 | inactive: -1.76%
CCN(CC)CC(C)C(C)OC(=O)C(O)(c1ccccc1)c1ccccc1 (centres undefined) | inactive: -0.688%
Cc1ccc(C(=O)NCC2(N3CCCCC3)CCCCC2)cc1 | inactive: -4.1%
O=C(NCC1(N2CCCCC2)CCCCC1)c1cc([N+](=O)[O-])ccc1Cl | inactive: 12.2%
CN1[C@@H]2CC[C@H]1CC(OC(=O)C(O)(c1ccccc1)c1ccccc1)C2 (some centres undefined) | inactive: 3.34%
COc1ccc(Br)c(C(=O)NCC2(N3CCCCC3)CCCCC2)c1 | inactive: -3.43%
O=C(OCCN1CCCC1)C(O)(c1ccccc1)c1ccccc1 | inactive: -4%
CC(C)Oc1ccc(C(=O)NCC2(N(C)C)CCCCC2)cc1 | inactive: 0.12%
O=C(OC1CN2CCC1CC2)C(CO)(c1ccccc1)c1ccccc1 (centres undefined) | inactive: -4.04%
COc1ccc(Cl)cc1C(=O)NCC1(N(C)C)CCCCC1 | inactive: 1.54%
COc1cccc(C(=O)NCC2(N3CCCCC3)CCCCC2)c1 | inactive: 4.61%
O=C(NCC1(N2CCCCC2)CCCCC1)c1cccc(Cl)c1 | inactive: 3.94%
CN(C)C1(CNC(=O)c2ccc(Br)cc2)CCCCC1 | inactive: -5.37%
COc1cc(C(=O)NCC2(N(C)C)CCCCC2)c([N+](=O)[O-])cc1OC | inactive: -8.3%
